Molecular target: human m3 muscarinic receptor (Homo sapiens, UniProt P20309)
Conditions: read-out: estimated IC50, m3 receptor

The chains behind the UniProt entries cited, without tags or fusion partners.
UniProt P20309, whole entry: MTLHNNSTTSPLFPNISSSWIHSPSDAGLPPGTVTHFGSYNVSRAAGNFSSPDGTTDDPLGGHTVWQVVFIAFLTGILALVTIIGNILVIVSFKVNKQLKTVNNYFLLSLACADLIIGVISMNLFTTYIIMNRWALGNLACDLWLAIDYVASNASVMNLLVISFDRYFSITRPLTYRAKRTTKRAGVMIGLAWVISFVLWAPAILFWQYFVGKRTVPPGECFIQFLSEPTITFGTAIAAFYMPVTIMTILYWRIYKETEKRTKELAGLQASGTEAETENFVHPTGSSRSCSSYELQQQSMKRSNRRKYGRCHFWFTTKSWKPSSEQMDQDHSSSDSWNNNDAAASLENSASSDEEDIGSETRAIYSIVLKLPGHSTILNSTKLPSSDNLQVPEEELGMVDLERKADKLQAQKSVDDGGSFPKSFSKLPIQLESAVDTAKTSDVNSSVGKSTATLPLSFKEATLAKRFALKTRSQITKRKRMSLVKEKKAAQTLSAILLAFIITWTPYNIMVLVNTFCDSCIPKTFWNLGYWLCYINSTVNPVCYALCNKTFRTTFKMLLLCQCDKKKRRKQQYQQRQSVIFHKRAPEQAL

For “4-diphenylacetoxy-N-methylpiperidine [4-DAMP]”, the IC50 was 3.2 nM.

— patent US20020183241A1, “Methods for treating vertigo and motion sickness using descarboethoxyloratadine” (priority 1997, published 2002)
